Where two headings read alike, the source gives them in different places.
Columns and labels:
αvβ6 = target: T1, αvβ6 (Homo sapiens, UniProt P06756+P18564); assay: Competitive integrin binding assay (isoDGR/STV-HRP probe), αvβ6-coated plates
T1 construct: recombinant human αvβ6 extracellular domain (R&D Systems); purchased R&D Systems (Minneapolis, Minn.)

αvβ8 = αvβ8 (Homo sapiens, UniProt P06756+P26012); assay: Competitive integrin binding assay (isoDGR/STV-HRP probe), αvβ8-coated plates
αvβ5 = target: T2, αvβ5 (Homo sapiens, UniProt P06756+P18084); assay: Competitive integrin binding assay (isoDGR/STV-HRP probe), αvβ5-coated plates
T2 construct: purchased Immunological Sciences (Rome, Italy)

αvβ3 = target: T3, αvβ3 (Homo sapiens, UniProt P05106+P06756); assay: Competitive integrin binding assay (isoDGR/STV-HRP probe), αvβ3-coated plates
T3 construct: purchased Immunological Sciences (Rome, Italy)

## CC(C)C[C@H](NC(=O)[C@H](CC(=O)O)NC(=O)CNC(=O)[C@H](CCCNC(=N)N)NC(=O)[C@H](CC(C)C)NC(=O)[C@H](CC(N)=O)NC(=O)[C@@H]1CCCN1C(=O)[C@@H](NC(=O)[C@H](C)NC(=O)[C@@H](N)CC(N)=O)C(C)C)C(=O)N[C@@H](CCC(N)=O)C(=O)N[C@H](C(=O)N[C@@H](CC(C)C)C(=O)N[C@@H](C)C(=O)N[C@@H](CCC(N)=O)C(=O)N[C@@H](CCCCN)C(=O)N[C@H](C(=O)N[C@@H](C)C(=O)N[C@@H](CCCNC(=N)N)C(=O)N[C@H](C(=O)O)[C@@H](C)O)C(C)C)C(C)C [peptide 6]
αvβ6
  Ki: 0.9 ± 0.2 nM
αvβ6; read-out: Binding affinity for αvβ6 Ki
  Ki: 0.9 ± 0.2 nM
αvβ6; read-out: Ki αvβ6
  Ki: 0.9 nM
αvβ8
  Ki: 69 ± 12 nM
αvβ5
  Ki: 15400 ± 2420 nM
αvβ3
  Ki: 26200 ± 7390 nM
